Only a part is listed here, and it is no random draw. Records with an inconclusive call do not appear. Calls of active or inactive are those of the source.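 The calls were made as follows: active = thallium flux slope above the same plate's solvent-only control mean plus 3 SD; inconclusive = the two replicate wells disagree; inactive = no significant difference from solvent-only control wells.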

Amino acid sequences for entries named in this document (tags omitted).
UniProt Q9H2X9, whole entry: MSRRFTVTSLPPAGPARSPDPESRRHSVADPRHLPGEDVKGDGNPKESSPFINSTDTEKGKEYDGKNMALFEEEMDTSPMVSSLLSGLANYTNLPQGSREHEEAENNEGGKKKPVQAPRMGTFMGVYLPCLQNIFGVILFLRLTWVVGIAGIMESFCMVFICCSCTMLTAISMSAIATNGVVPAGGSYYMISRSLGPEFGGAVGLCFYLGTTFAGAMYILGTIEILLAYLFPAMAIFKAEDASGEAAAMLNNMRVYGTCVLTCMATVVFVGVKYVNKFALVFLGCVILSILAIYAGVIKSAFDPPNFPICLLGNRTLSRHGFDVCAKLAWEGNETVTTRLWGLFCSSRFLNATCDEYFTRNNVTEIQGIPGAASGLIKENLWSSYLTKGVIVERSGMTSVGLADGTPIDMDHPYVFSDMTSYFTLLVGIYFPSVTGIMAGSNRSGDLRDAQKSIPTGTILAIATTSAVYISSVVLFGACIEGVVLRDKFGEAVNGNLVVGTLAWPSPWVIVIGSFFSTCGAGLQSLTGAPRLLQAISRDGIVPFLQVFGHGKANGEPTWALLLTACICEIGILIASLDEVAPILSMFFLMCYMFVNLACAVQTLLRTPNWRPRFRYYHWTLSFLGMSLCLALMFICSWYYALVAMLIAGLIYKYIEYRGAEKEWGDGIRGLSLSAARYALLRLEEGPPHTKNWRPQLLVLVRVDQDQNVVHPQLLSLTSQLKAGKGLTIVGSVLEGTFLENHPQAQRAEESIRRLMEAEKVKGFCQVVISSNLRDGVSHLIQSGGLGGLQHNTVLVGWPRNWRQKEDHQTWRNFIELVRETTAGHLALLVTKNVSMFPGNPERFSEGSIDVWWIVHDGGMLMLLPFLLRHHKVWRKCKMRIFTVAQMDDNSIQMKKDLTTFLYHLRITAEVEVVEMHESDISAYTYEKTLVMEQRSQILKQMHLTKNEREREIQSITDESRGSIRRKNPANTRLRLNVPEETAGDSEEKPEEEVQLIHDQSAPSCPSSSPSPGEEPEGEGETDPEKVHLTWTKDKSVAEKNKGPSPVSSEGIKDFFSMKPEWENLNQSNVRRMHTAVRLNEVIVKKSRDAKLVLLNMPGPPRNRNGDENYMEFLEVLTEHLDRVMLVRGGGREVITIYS

For this experiment, the target named is Solute carrier family 12 member 5 (Homo sapiens) (UniProt Q9H2X9). Nature of the experiment: retest of KCC2 transport modulators without sodium – cell-based, HEK293 KCC2, thallium flux, secondary assay, confirmation (AID 1713). The settings on record: FluoZin2 fluorescence, at 10 µM, active compounds read high. A digest of the protocol:
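Read-out basis: F/F0 slope over 10–20 s post-thallium, baseline-normalized; test system: KCC2-expressing HEK cells; detection: FluoZin2 fluorescence, 480/540 nm, 1 Hz; reagent: thallium stimulus; compound dosing: 10 µM single concentration; control set: 2 mM bumetanide as positive, DMSO as negative control; times: 48 min dye loading; buffer or medium: Sodium-free N-methylglucamine chloride buffer; replicates: duplicates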
Take `CP(=O)(Nc1ccccc1)Oc1ccc(F)cc1` (stereo unspecified): the normalised thallium flux (F/F0 slope) was inactive: 0.0109.

The values above are taken from PubChem BioAssay AID1713 (Vanderbilt High Throughput Screening Facility, 2009).
